The series can be described thus: Lyophilisation solubility assay (Lysa). The series is classed as physicochemical. The following applies: 0.05 M phosphate buffer (pH 6.5); reported as bigger than the value if more than 80% of the sample is in solution. From the text:
The aqueous solubility is an important physico-chemical property that plays a significant role in various physical and biological processes. It is desirable to have good solubility which enables good permeability and gastric and intestinal absorption, linear dose proportionality, less PK variability, and easy formulation for PD/PK studies. At different stages of the drug discovery/development process solubility has to be determined and especially in the early phases (lead generation to lead optimization) high throughput methods are needed. Lyophilisation solubility assay (Lysa) is a well adopted high throughput assay to measure compound solubility in industry.
Samples are prepared in duplicate from 10 mM DMSO stock solutions. After evaporation of DMSO with a centrifugal vacuum evaporator, the residue is solved in 0.05 M phosphate buffer (pH 6.5), stirred for one hour and then shook for two hours. After one night, the solution is filtered using a microtiter filter plate and then the filtrate and its 1/10 dilution are then analyzed by direct UV measurement or by HPLC-UV. In addition a four-point calibration curve is prepared from the 10 mM stock solutions and used for the solubility determination of the compounds. The results are in μg/ml. […]

Substance “2-[(1R,5R,7S)-9-[[(4S)-4-(3,4-difluoro-2-methyl-phenyl)-5-methoxycarbonyl-2-thiazol-2-yl-1,4-dihydropyrimidin-6-yl]methyl]-6,6-difluoro-3-oxa-9-azabicyclo[3.3.1]nonan-7-yl]acetic acid or 2-[(1S,5S,7R)-9-[[(4S)-4-(3,4-difluoro-2-methyl-phenyl)-5-methoxycarbonyl-2-thiazol-2-yl-1,4-dihydropyrimidin-6-yl]methyl]-6,6-difluoro-3-oxa-9-azabicyclo[3.3.1]nonan-7-yl]acetic acid [Example 132]” showed a Lysa of 330 µg/mL.
